How the values were obtained:
[1] = Intrinsic clearance in rat; assay type: ADME, organism-based; conditions: in vivo
Rattus norvegicus = experiment: Clearance in rat at 3 mg/kg, sc; assay type: ADME, organism-based; parameters: dose 3 mg/kg, route subcutaneous; conditions: in vivo

CLint scaled [1]: 968 mL/min/kg
CL (Rattus norvegicus): 968000 µL/min/mg
Structure (SMILES): CN1CCN(C(=O)c2cc3cc(Cl)ccc3[nH]2)CC1 [JNJ-7777120]
